In general, EC50 refers to the midpoint of the concentration-response curve. A word on the Ki: it is a dissociation constant, usually derived from enzyme kinetics or from competition with a known ligand.

For series [1] the following is noted: 10 µM, 37°C, intact peptide by LCMS.
A further series deals with T1, FLAG-KDM4A1-1,064 (Homo sapiens, UniProt O75164).
T1 construct: expressed in transfected cells; host or cells: U2OS
T1 sequence (O75164 1-1064): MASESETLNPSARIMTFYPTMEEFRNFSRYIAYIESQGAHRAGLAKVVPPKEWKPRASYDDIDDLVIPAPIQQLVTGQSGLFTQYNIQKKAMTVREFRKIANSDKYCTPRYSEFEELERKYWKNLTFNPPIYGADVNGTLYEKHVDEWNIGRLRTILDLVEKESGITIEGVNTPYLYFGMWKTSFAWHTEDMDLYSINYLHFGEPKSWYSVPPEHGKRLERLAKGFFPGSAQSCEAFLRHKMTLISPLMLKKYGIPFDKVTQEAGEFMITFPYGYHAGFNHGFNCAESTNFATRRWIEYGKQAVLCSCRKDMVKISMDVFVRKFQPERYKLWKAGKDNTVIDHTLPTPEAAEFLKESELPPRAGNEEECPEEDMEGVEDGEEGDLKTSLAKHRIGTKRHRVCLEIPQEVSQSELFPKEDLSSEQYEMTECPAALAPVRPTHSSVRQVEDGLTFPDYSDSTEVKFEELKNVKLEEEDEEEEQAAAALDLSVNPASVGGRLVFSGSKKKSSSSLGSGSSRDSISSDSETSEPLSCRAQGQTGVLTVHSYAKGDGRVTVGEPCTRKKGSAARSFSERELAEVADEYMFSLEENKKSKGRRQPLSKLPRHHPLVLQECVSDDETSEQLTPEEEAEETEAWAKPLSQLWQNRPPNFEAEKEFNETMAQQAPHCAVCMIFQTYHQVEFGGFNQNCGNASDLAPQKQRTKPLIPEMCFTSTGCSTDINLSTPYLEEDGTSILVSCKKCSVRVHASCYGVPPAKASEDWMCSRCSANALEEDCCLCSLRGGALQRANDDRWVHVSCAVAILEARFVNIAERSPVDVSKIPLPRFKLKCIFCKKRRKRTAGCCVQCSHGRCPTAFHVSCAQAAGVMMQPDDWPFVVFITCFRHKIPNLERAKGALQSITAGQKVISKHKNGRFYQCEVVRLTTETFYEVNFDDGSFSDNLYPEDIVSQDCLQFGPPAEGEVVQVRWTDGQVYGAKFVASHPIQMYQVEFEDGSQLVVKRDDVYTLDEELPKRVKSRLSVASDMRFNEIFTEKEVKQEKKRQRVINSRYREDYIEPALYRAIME
Briefly: CETSA, FLAG-KDM4A in U2OS cells. The format is cell-based. The note with it: read-out: ITDRF CETSA EC50, FLAG-KDM4A stabilization, 55 °C, 20 h dosing. Here is the method:
Control cells were dosed only with DMSO.

A further series deals with T2, His-KDM4A1-359 (Homo sapiens, UniProt O75164).
T2 construct: using 0.5 μM His-KDM4A1–359; made in house
T2 sequence (O75164 1-359): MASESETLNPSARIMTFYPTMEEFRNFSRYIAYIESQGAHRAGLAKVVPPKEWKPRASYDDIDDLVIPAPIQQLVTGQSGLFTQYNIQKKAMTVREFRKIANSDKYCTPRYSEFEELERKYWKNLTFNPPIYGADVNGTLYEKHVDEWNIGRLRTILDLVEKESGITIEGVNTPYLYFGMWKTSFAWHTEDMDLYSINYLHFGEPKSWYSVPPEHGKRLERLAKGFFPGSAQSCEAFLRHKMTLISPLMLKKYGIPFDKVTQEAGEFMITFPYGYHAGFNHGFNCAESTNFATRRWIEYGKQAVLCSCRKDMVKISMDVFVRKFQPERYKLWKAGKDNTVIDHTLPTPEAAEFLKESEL
The experiment in a line: Formaldehyde dehydrogenase coupled KDM assay (mode of inhibition). The format is biochemical. The note with it: FDH assay; 0.5 µM KDM4A; H3(1-15)K9me3 substrate; mixed-model fit.

DY(meV)YNTRSDAWRW(4FF)P(meC) [CP2.3]: in series [1], the “Half life (t1/2) in HeLa cell lysate” value is given as roughly 5 h. In addition, the concentration for a half-maximal effect (EC50) on FLAG-KDM4A1-1,064 is less than 0.1 µM.
Consider DYVYNTRSGWRWYTC [CP2], for which, in series [1], the “Half life (t1/2) in HeLa cell lysate” value was roughly 1 h. In addition, the half-maximal effective concentration (EC50) on FLAG-KDM4A1-1,064 was roughly 1 µM. Besides, the affinity at His-KDM4A1-359 corresponds to a Ki of 0.18 µM.

(Values after paper PMC5384220, “Highly selective inhibition of histone demethylases by de novo macrocyclic peptides” (Nature Communications, 2017).)
